# Source: PubChem
# Only some compounds are listed: those with a hit (about 0.91% of all), similar ones and a draw of the others.
# Yeast UUG start = modulators of yeast start codon fidelity, primary screen, whole organism, S. cerevisiae, single point, plate reader | AID 602363, 2012 | actives 0.13% (n = 350,000) | activity score, % at 18.7 µM | S. cerevisiae UUG-firefly luciferase reporter, luminescence/redox ratio;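 active means replicate mean at a twofold rise or more, about +100% in these data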;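 further: firefly luciferase made from a UUG start codon reports start codon fidelity; reporter light over untreated wells divided by growth signal over untreated wells; some hits fall short of that in this replicate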
# PGC1a acetyl inh = lowers PGC1a acetylation signal in U2OS cells. AlphaScreen anti-acetyl-lysine; with virally co-expressed GCN5 acetyltransferase. inhibition, % at 15.6 µM. actives 0.17% (n = 350,000). AID 651687;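 active means every replicate shows inhibition of at least 40%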;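 further: 0% = neutral control wells and 100% = positive control wells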
# hiPSC survival = hiPSC single-cell survival enhancement; ATPlite luminescence; 100% = ROCK inhibitor wells, 0% = DMSO; survival enhancement, % at 20 µM; actives 0.044% (n = 360,000); AID 602274; in the data active means survival enhancement above about 18%;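 further: cells exposed to compounds for 16 hours before the ATP read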
# FN deposition inh = fibronectin deposition inhibition; AH1F fibroblasts, Alexa488-fibronectin deposition fluorescence, overnight; inhibition, % at 12.6 µM; actives 0.086% (n = 350,000); AID 743247;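 active means mean inhibition across replicates of 30% or more, regardless of how many single replicates reach that level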;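 further: positive control wells lacked labelled fibronectin entirely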
#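 Assay system: AH1F fibroblast monolayer, labelled fibronectin deposition. Amount: 10000 cells per well. Also added: labelled fibronectin 24 nM. Compound: single-point pinned compound. Incubation: cell attachment 1 h, compound and FN exposure overnight. Detection: fluorescence after three HBSS washes, excitation 485 nm, emission 525 nm. Read-out: inhibition of fibronectin deposition signal.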
# C2C12 statin = suppression of simvastatin myotoxicity. rescue of ATP level, % at 7.49 µM. C2C12 myotubes + simvastatin, ATP luminescence, 48 h; scaled: DMSO 0, geranylgeraniol control 100. actives 0.78% (n = 330,000);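 active means mean ATP rescue above about 67%, or every replicate alone reaching that limit, limit read from the data, passing the limit was not always enough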;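 further: myotubes were challenged with 10 µM simvastatin during compound exposure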
# The depositor's hits bear a star; nt = no result given.
1	CCOc1cccc(N2C(=O)CC(NCc3ccc(S(N)(=O)=O)cc3)C2=O)c1 (stereo unspecified)
2	COc1ccccc1CNC(=O)C[C@@H]1CC[C@@H](NC(C)=O)[C@@H](CO)O1
3	O=C(CSc1ccc(Cl)cc1)N1CCN(c2c(Cl)cccc2[N+](=O)[O-])CC1
4	CCCc1cn(CC[C@H]2CC[C@H](NS(=O)(=O)c3ccccc3Cl)[C@H](CO)O2)nn1
5	CC(C)NC(=O)N[C@@H]1CC[C@H](CC(=O)NCCCN(C)C)O[C@@H]1CO
6	O=C(CCN1CCCCC1)NCC[C@H]1CC[C@H](NC(=O)Cc2cccnc2)[C@@H](CO)O1
screen / no. | 1 | 2 | 3 | 4 | 5 | 6
Yeast UUG start | -1 | -22 | -24 | -1 | -4 | -5
PGC1a acetyl inh | -1 | -5 | -1 | -16 | 7 | -9
hiPSC survival | 0 | nt | -2 | nt | nt | nt
FN deposition inh | nt | 10 | nt | -3 | 8 | -12
C2C12 statin | 78* | -4 | 67* | 0 | -7 | 4

7	O=C(CCN1CCCCC1)NCC[C@H]1CC[C@H](NC(=O)Cc2cccnc2)[C@H](CO)O1
8	O=C(Cc1ccncc1)NCC[C@@H]1CC[C@H](NC(=O)C2CCCC2)[C@@H](CO)O1
9	O=C(Cc1ccncc1)NCC[C@H]1CC[C@H](NC(=O)C2CCCC2)[C@H](CO)O1
10	O=C(Cc1ccncc1)NCC[C@H]1CC[C@@H](NC(=O)C2CC2)[C@H](CO)O1
11	C[C@@H]1CN([C@@H](C)CO)C(=O)c2cc(NC(=O)Cn3cnnn3)ccc2O[C@H]1CN(C)Cc1ccncc1
12	C[C@@H]1CN([C@@H](C)CO)C(=O)c2cc(C#CC3CCCC3)cnc2O[C@H]1CN(C)C(=O)C1CCCCC1
screen / no. | 7 | 8 | 9 | 10 | 11 | 12
Yeast UUG start | 107* | -3 | 196* | -15 | -2 | 10
PGC1a acetyl inh | 5 | -5 | -4 | 62* | 6 | -1
hiPSC survival | nt | nt | nt | nt | nt | nt
FN deposition inh | -4 | 16 | -8 | 5 | nt | -7
C2C12 statin | 10 | 1 | -3 | 0 | -26 | 48

13	NC(=O)c1ncn([C@@H]2O[C@H](C(=O)N[C@H](Cc3c[nH]c4ccccc34)C(=O)N3CCN(C(=O)C4CC4)CC3)[C@@H](O)[C@H]2O)n1
14	CO[C@H]1CN(C)C(=O)c2ccc(NS(C)(=O)=O)cc2OC[C@H](C)N(CC2CCOCC2)C[C@@H]1C
15	CCOC(=O)C1=Nc2ccccc2C1=[N+]=[N-]
16	CCOC(=O)C1=Nc2cccc3c(O)ccc1c23
17	COc1ccc(CNC(=O)CCOc2ccc(C(C)(C)C)cc2)cc1
18	O=C(c1ccco1)N1N=C(c2ccccc2O)CC1c1cccs1 (stereo unspecified)
screen / no. | 13 | 14 | 15 | 16 | 17 | 18
Yeast UUG start | nt | nt | nt | nt | 0 | 18
PGC1a acetyl inh | nt | 1 | 45* | nt | 10 | -6
hiPSC survival | nt | nt | -1 | nt | 2 | -1
FN deposition inh | 10 | -1 | nt | -5 | nt | nt
C2C12 statin | nt | nt | nt | nt | 104* | 70*

19	O=C(c1ccco1)N1N=C(c2cccs2)CC1c1ccco1 (stereo unspecified)
20	Cc1cc(C)c(S(=O)(=O)N2CCN=C2c2ccccc2)cc1C
21	CCCCn1cnc2c(SCCc3ccccc3)nc(N)nc21
22	COC(=O)c1ccc2nc(-c3ccco3)c(Cc3cccc(Cl)c3)n2c1
23	COC(=O)c1ccc2nc(-c3ccco3)c(Cc3ccccc3)n2c1
24	CCOC(=O)C(C)Sc1nc2c(cnn2-c2ccc(C)cc2)c(=O)[nH]1 (stereo unspecified)
screen / no. | 19 | 20 | 21 | 22 | 23 | 24
Yeast UUG start | nt | -8 | -19 | nt | 7 | -9
PGC1a acetyl inh | 8 | -5 | 1 | nt | -3 | -9
hiPSC survival | 2 | -1 | -1 | 0 | 2 | 6
FN deposition inh | nt | nt | 5 | -4 | -7 | 17
C2C12 statin | 34 | 99* | 99* | nt | 83* | 97*

# Entries listed above that bear a hit mark in Yeast UUG start:
nr	Molecule	Yeast UUG start	PGC1a acetyl inh
7	O=C(CCN1CCCCC1)NCC[C@H]1CC[C@H](NC(=O)Cc2cccnc2)[C@H](CO)O1	107*	5
9	O=C(Cc1ccncc1)NCC[C@H]1CC[C@H](NC(=O)C2CCCC2)[C@H](CO)O1	196*	-4

# (listing goes on)
25	Cc1ccc(-n2ncc3c(=O)[nH]c(SCC(=O)N4CCOCC4)nc32)cc1
26	O=C(CSc1nc2c(cnn2-c2ccccc2)c(=O)[nH]1)N1CCOCC1
27	O=C(CSc1nc2c(cnn2-c2ccc(F)cc2)c(=O)[nH]1)N1CCOCC1
28	O=C(Nc1cccc(C(F)(F)F)c1)C1CCN(S(=O)(=O)c2cnc[nH]2)CC1
29	C[C@H](NC(=O)C[C@@H]1C[C@@H]2c3cc(NC(=O)Nc4ccc(C(F)(F)F)cc4)ccc3O[C@@H]2[C@@H](CO)O1)c1ccccc1
30	CN(C)c1ccc(-c2ccnc3c2CC(C)(C(=O)Nc2ccc(Cl)c(C(F)(F)F)c2)O3)cc1 (stereo unspecified)
31	CC(=O)Nc1ccc(-c2ccnc3c2CC(C)(C(=O)Nc2ccc(Cl)c(C(F)(F)F)c2)O3)cc1 (stereo unspecified)
screen / no. | 25 | 26 | 27 | 28 | 29 | 30 | 31
Yeast UUG start | -3 | -14 | -8 | -9 | nt | -17 | -39
PGC1a acetyl inh | 9 | -2 | -5 | 6 | 8 | nt | nt
hiPSC survival | -3 | -1 | 2 | 0 | nt | 20* | -2
FN deposition inh | 7 | nt | 9 | 2 | nt | nt | -8
C2C12 statin | 129* | 142* | -3 | 107* | 1 | nt | 18
